Test results from BindingDB's records for doi:10.1021/jm00164a002 (Syntex Research, 1990).

Molecular target: T1, Neutrophil elastase (Homo sapiens, UniProt P08246)
T1 sequence (P08246 whole entry): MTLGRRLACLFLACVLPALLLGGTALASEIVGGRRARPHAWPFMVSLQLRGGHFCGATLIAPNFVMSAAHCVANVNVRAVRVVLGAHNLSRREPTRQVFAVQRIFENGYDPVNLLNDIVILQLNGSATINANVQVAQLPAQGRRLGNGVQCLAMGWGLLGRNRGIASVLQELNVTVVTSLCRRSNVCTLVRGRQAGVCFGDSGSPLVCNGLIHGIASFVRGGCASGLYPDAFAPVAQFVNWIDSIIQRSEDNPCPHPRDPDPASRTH
Experiment: Component deacylation rate constant for interaction with human leukocyte elastase

## CCc1cccc2nc(C)oc(=O)c12
  koff: 0.00776 s⁻¹
read-out: kon (M-1-s-1)
  kon: 64600 M⁻¹ s⁻¹
